Experiments:
Assay type in all cases: cell-based
rat V2 receptor (rV2R) [1] = target: T1, rat V2 receptor (rV2R) (Rattus norvegicus, UniProt Q00788); test: Antagonist transcriptional reporter gene assay, rat V2 receptor; conditions: rV2, HEK-293 reporter gene, vs AVP; Ki calculated from IC50; read-out: Geomean Ki
T1 construct: expressed in transfected cells; host or cells: HEK-293
Method: (§1) Agonist activity of compounds on the human V2 receptor (hV2R) and the rat V2 receptor (rV2R) was determined in a transcriptional reporter gene assay in which HEK-293 cells were transiently transfected with either the human or rat V2 receptor, and a reporter DNA containing cyclic-AMP responsive promoter elements regulating expression of firefly luciferase. See Castarion, M. J., Spevak, W., Biochem Biophys Res Commun.1994 Jan.
(§2) Antagonist activity of compounds on the human V2 receptor (hV2R) and the rat V2 receptor (rV2R) was determined in a transcriptional reporter gene assay as in section III.A; see Castañón, M. J. et al. supra. […] Ki values were calculated from IC50 values.

Amino acid sequences for entries named in this document (tags omitted).
UniProt Q00788, whole entry: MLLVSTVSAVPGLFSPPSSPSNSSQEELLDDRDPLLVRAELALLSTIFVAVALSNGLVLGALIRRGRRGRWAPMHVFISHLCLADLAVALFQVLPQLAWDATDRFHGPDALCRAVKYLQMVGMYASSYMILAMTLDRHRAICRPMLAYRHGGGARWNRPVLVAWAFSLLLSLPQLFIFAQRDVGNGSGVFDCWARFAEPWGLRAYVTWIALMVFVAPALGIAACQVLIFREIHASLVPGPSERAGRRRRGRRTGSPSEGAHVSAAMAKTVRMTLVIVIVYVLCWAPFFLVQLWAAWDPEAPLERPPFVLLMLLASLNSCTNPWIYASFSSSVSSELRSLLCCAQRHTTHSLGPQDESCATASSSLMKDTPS
UniProt P30560, whole entry: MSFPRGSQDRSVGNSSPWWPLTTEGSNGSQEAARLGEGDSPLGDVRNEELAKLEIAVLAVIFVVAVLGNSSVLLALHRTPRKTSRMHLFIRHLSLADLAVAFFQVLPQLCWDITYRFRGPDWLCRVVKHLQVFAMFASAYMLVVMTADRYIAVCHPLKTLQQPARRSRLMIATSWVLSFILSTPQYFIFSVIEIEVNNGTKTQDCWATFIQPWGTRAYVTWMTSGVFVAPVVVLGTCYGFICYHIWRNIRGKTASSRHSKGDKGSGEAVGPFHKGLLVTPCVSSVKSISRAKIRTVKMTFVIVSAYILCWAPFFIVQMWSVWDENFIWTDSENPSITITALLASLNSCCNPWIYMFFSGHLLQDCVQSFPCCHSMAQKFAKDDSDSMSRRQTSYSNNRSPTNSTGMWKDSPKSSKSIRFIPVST
UniProt P37288, whole entry: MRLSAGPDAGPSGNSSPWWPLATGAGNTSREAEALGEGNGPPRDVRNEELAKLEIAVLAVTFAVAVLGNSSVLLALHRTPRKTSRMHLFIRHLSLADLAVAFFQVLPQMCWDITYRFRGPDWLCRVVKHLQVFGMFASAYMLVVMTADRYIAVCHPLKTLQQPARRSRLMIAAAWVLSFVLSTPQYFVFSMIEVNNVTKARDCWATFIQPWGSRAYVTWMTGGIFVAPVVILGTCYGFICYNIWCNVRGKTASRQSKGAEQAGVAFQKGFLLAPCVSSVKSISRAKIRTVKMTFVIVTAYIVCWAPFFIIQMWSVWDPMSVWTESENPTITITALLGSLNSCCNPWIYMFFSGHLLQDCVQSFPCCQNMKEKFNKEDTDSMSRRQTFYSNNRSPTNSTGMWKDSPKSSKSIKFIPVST

rat V1a receptor (rV1aR) [2] = target: T2, rat V1a receptor (rV1aR) (Rattus norvegicus, UniProt P30560); test: Antagonist transcriptional reporter gene assay, rat V1a receptor; conditions: rV1a, HEK-293 reporter gene, vs AVP; for Ki: Ki calculated from IC50, read-out: Geomean Ki
T2 construct: expressed in transfected cells; host or cells: HEK-293
Method: (§3) Agonist activity of compounds on the human V1a receptor (hV1aR) and the rat V1a receptor (rV 1 aR) was determined in a transcriptional reporter gene assay in which HEK-293 cells were transiently co-transfected with either the human or rat V1a receptor, and a reporter DNA containing intracellular calcium responsive promoter elements regulating expression of firefly luciferase. See Boss, V., Talpade, D. J., Murphy, T. J. J. Biol. Chem. 1996, May 3; 271(18), 10429-10432 for further guidance on this assay.
(§4) Antagonist activity of compounds on the human V1a receptor (hV1aR) and the rat V1a receptor (rV 1 aR) was determined in a transcriptional reporter gene assay as in section III.A; see Boss, V. et al. supra. […] Ki values were calculated from IC50 values.

[3] = target: T3, human V1a receptor (hV1aR) (Homo sapiens, UniProt P37288); test: Antagonist transcriptional reporter gene assay, human V1a receptor; conditions: hV1a, HEK-293 reporter gene, vs AVP; for Ki: Ki calculated from IC50, read-out: Geomean Ki
T3 construct: expressed in transfected cells; host or cells: HEK-293
Method: as §3, with “luciferase.” for “luciferase. See Boss, V., Talpade, D. J., Murphy, T. J. J. Biol. Chem. 1996, May 3; 271(18), 10429-10432 for further guidance on this assay.”
as §4

human V2 receptor (hV2R) [4] = target: T4, human V2 receptor (hV2R) (Homo sapiens, UniProt P30518); test: Antagonist transcriptional reporter gene assay, human V2 receptor; conditions: hV2, HEK-293 reporter gene, vs AVP; for Ki: Ki calculated from IC50, read-out: Geomean Ki
T4 construct: expressed in transfected cells; host or cells: HEK-293
Method: as §1, §2

rat V1a receptor (rV1aR) [5] = target: T2, rat V1a receptor (rV1aR); test: Agonist transcriptional reporter gene assay, rat V1a receptor; conditions: rV1a, HEK-293 reporter gene
human V2 receptor (hV2R) [6] = target: T4, human V2 receptor (hV2R); test: Agonist transcriptional reporter gene assay, human V2 receptor; conditions: hV2, HEK-293 reporter gene
[7] = target: T3, human V1a receptor (hV1aR); test: Agonist transcriptional reporter gene assay, human V1a receptor; conditions: hV1a, HEK-293 reporter gene
rat V2 receptor (rV2R) [8] = target: T1, rat V2 receptor (rV2R); test: Agonist transcriptional reporter gene assay, rat V2 receptor; conditions: rV2, HEK-293 reporter gene, 5 hours

| Substance | Ki (rat V2 receptor (rV2R) [1]) [nM] | Efficacy Antag (rat V1a receptor (rV1aR) [2]) [%] | Ki (rat V1a receptor (rV1aR) [2]) [nM] | Efficacy Antag [3] [%] | Ki [3] [nM] | Efficacy Antag (human V2 receptor (hV2R) [4]) [%] | Ki (human V2 receptor (hV2R) [4]) [nM] | Efficacy (rat V1a receptor (rV1aR) [5]) [%] | Efficacy (human V2 receptor (hV2R) [6]) [%] | EC50 (human V2 receptor (hV2R) [6]; 5 hours) [nM] | Efficacy [7] [%] | EC50 (rat V2 receptor (rV2R) [8]) [nM] |
| --- | --- | --- | --- | --- | --- | --- | --- | --- | --- | --- | --- | --- |
| [Pmp1,D-Ile2,Ile4,Arg8]vasopressin [[Pmp1, D-Ile2, Ile4]AVP] | 10 | 26 | > 338 | 120 | 163 | 72 | 270 |  |  |  |  |  |
| [Pmp1,D-Ile2,Ile4,Arg8]vasopressin-(1-8)-OH [[Pmp1, D-Ile2, Ile4]AVP-(1-8)-OH] | 36 | 26 | > 338 | 43 | > 950 | 25 | > 909 |  |  |  |  |  |
| ornithine vasopressin [[Orn8] Vasopressin, OVP] |  |  |  |  |  |  |  | 101 | 97 | 0.45 | 99 | 0.37 |

From US20100311642A1, “USE OF V2 RECEPTOR ANTAGONISTS IN COMBINATION WITH VASO PRESSINERGIC AGNOSTS” (Ferring B.V., priority 2007, published 2010)
